Earlier results in patent US20220259279A1, “ALGINATE-BASED MICROCAPSULATION FOR THE DELIVERY OF ALPHA-CGRP IN CARDIOVASCULAR DISEASES” (University of South Carolina, priority 2019, published 2022).

Key:
[1] = cited from earlier work
[2] = tested on: normal as well as spontaneously hypertensive rats; details: intravenous injection, normal and spontaneously hypertensive rats; cited from earlier work

In the case of “alpha-calcitonin gene related peptide [α-CGRP]”, the “time the native peptide lasts in the body” value [1] is given as 5 to 7 min and the “time after which MAP returned to normal baseline” value [2] is given as 20 min.
